The record followed here is patent publication US10221178B2, “Purine inhibitors of human phosphatidylinositol 3-kinase delta” (MERCK SHARP & DOHME CORP., priority 2015, dated 2019).

Protein sequences, listed by entry. Tags and fused reporters are not part of them. Lines headed by an entry give the natural chain unless they say otherwise; changes in a name come on top.
UniProt O00329: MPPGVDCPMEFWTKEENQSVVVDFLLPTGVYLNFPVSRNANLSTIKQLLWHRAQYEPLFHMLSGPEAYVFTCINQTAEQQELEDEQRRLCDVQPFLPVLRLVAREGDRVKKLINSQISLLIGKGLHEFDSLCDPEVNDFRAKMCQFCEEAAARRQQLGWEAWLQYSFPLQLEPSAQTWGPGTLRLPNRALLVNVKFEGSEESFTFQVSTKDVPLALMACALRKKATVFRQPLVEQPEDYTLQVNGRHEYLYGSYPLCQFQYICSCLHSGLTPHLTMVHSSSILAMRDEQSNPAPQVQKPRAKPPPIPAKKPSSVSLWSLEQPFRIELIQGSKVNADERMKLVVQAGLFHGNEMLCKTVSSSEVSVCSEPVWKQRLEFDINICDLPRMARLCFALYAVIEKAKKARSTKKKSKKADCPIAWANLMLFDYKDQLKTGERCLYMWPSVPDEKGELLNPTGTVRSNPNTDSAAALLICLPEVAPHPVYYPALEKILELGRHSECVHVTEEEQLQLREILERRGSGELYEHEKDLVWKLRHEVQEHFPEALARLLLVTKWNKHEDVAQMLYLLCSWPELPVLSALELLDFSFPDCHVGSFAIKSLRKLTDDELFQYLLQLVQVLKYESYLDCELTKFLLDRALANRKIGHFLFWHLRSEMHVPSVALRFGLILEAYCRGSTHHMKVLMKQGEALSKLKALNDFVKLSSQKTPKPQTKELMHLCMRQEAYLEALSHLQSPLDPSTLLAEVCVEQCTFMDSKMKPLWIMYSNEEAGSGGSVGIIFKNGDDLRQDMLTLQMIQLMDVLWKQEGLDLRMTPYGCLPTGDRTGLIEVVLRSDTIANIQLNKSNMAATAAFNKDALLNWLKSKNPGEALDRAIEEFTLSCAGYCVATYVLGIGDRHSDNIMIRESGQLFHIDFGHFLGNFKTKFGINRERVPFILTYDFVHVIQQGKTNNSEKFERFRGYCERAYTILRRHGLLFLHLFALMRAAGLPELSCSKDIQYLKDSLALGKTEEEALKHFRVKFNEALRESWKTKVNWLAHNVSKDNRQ

Structures are written as SMILES.

This assay concerns the target PI3Kdelta (Homo sapiens (Human), UniProt O00329). The assay can be described thus: HTRF PI3K biochemical assay, delta isoform. As to conditions: 0.3 nM enzyme, 100 uM ATP, 5 uM PIP2, form screened: Neutral. From the text: HTRF PI3K Biochemical Assay to Measure Intrinsic Potency of Compound Inhibitors
The PI3-Kinase biochemical assays were developed to measure the intrinsic potency and compound dependent inhibition of the alpha, beta, delta, and gamma PI3K isoform enzymes.
This assay was developed and further optimized from a kit produced by Upstate (Millipore catalog #33-047) and has been configured for HTS (high throughput screening) and SAR screening. Briefly, this procedure exploits the exquisite specificity and high affinity binding of enzyme reaction substrate phosphatidyl(3,4,5)triphosphate (PIP3) to the GRP1 pleckstrin homology (PH) domain to generate the signal. In the absence of PIP3, an HTRF (Homogeneous Time-Resolved Fluorescence energy transfer) complex is formed consisting of europium (Eu)-labeled anti-GST, GSTtagged GRP1-PH domain, biotin-PIP3 and streptavidin conjugated APC. The native PIP3 produced by PI3-Kinase activity disrupts in a competitive manner the biotin-PIP3 from the PH domain, resulting in the loss of energy transfer (HTRF complex) and a decrease in the signal. The format of this assay is the same for all 4 isoforms of PI3K; the differences lie in the concentration of enzyme used to achieve robust assay window. The alpha, beta, and delta assays are run at 0.5, 1, and 0.3 nM enzymes and the gamma assay is run at 5 nM enzyme. The ATP concentration is 100 uM in the alpha, beta, and delta assays and 50 uM ATP in the gamma assay. All reactions are run at 5 uM PIP2.
Compounds are serially diluted (3-fold in 100% DMSO) across a 384-well polypropylene source plated from column 3 to column 12 and column 13 to column 22, to yield 10 concentration dose response for each test compound. Columns 1, 2, 23 and 24 contain either only DMSO or pharmacological known control inhibitor. Once titrations are made, 2.5 nL of the compounds on 384 well plates are reformatted and transferred by acoustic dispense in quadruplicates to a 1536 assay plate (Greiner) to assay across all four PI3K isoform enzymes.
The PI3-Kinase biochemical assay was optimized using the HTRF kit provided by Upstate (Millipore). The assay kit contains six reagents: 1) 4× Reaction Buffer; 2) native PIP2 (substrate); 3) Stop (EDTA); 4) Detection Mix A (Streptavidin-APC); 5) Detection Mix B (Eu-labeled Anti-GST plus GST-tagged PH-domain); 6) Detection Mix C. In addition, the following items were obtained or purchased; PI3Kinase (alpha 14-602, beta 14-603, gamma 14-558 and delta 14-604 from Upstate; Millipore), dithiothreitol (Sigma, D-5545), Adenosine-5′ triphosphate (InVitrogen, Cat#AS001A), native PIP3 (PI(3,4,5)P3, diC8, H^+, CELLSIGNALS, INC. Cat #907) DMSO (Sigma, 472301).
PI3Kinase Reaction Buffer is prepared by dilution the stock 1:4 with de-ionized water. DTT, PIP2 and Biotin-PIP3 were added to 1536 assay plate at a final concentration of 5 mM, […] on the day of use. Enzyme addition and compound pre-incubation are initiated by the addition of 1.25 ul of PI3K (at twice its final concentration) in the 1× reaction buffer to all wells using a BioRaptor. Plates are incubated at RT for 15 minutes. Reactions are initiated by addition of 1.25 ul of 2× substrate solution (PIP2 and ATP in 1× reaction buffer) using BioRaptor. Plates are incubated in humidified chamber at RT for one hour. Reactions are quenched by addition of 0.625 uL of stop solution to all wells using the BioRaptor. The quenched reactions are then processed to detect product formation by adding 0.625 uL of Detection Solution to all wells using the BioRaptor (Detection mix C, Detection Mix A, and Detection Mix B combined together in an 18:1:1 ratio prepared 2 hours prior to use). Following a one hour incubation in the dark, the HTRF signal is measured on the Envision plate reader set for 330 nm excitation and dual emission detection at […]. […]
(In general: TR-FRET usually uses a lanthanide donor and a delayed reading to cut background.)
With `CCC(Nc1ncnc2c1nc(-c1cnn(CC)c1C)n2C)C(=O)N1CCC1` (racemic) [Compound 1-3, (R and S)-N-[1-(azetidin-1-ylcarbonyl)propyl]-8-(1-ethyl-5-methyl-1H-pyrazol-4-yl)-9-methyl-9H-purin-6-amine], the IC50 (commonly the concentration that inhibits the measured activity by half) is 26 nM.

Consider `CCC(Nc1ncnc2c1nc(-c1cnn(CC)c1C)n2C)C(=O)N1C[C@@H](C)O[C@@H](C)C1` (mixture of isomers) [Compound 1-4, (R and S)-N-(1-{[(cis)-2,6-dimethylmorpholin-4-yl]carbonyl}propyl)-8-(1-ethyl-5-methyl-1H-pyrazol-4-yl)-9-methyl-9H-purin-6-amine], for which it took 4 nM to reach half-maximal inhibition (IC50). The result for `CC[C@H](Nc1ncnc2c1nc(-c1cnc(C)nc1)n2CC)C(=O)N1CCC(OC)C1` (mixture of isomers) [Compound 2-19, 9-ethyl-N-{(1S)-1-[((S and R)-3-methoxypyrrolidin-1-yl)carbonyl]propyl}-8-(2-methylpyrimidin-5-yl)-9H-purin-6-amine] reads 50 nM; that for `CC[C@H](Nc1ncnc2c1nc(-c1cnc(C)nc1)n2CC)C(=O)N1CCCC1C1CC1` (mixture of isomers) [Compound 2-22, N-{(1S)-1-[((R and S)-2-cyclopropylpyrrolidin-1-yl)carbonyl]propyl}-9-ethyl-8-(2-methylpyrimidin-5-yl)-9H-purin-6-amine], 17 nM.

As for `CC[C@H](Nc1ncnc2c1nc(-c1cnc(C)nc1)n2CC)C(=O)N1CCOC(C2CC2)C1` (mixture of isomers) [Compound 2-28, N-{(1S)-1-[((S and R)-2-cyclopropylmorpholin-4-yl)carbonyl]propyl}-9-ethyl-8-(2-methylpyrimidin-5-yl)-9H-purin-6-amine], it took 22 nM to reach half-maximal inhibition (IC50). The compound `CC[C@H](Nc1ncnc2c1nc(-c1cnc(C)nc1)n2CC)C(=O)N1CCOCC1C1CC1` (mixture of isomers) [Compound 2-30, N-{(1S)-1-[((S and R)-3-cyclopropylmorpholin-4-yl)carbonyl]propyl}-9-ethyl-8-(2-methylpyrimidin-5-yl)-9H-purin-6-amine] returned an IC50 of 19 nM. In turn, `CC[C@H](Nc1ncnc2c1nc(-c1cnc(C)nc1)n2CC)C(=O)N1CCN2CCCC2C1` (mixture of isomers) [Compound 2-38, 9-ethyl-N-[(1S)-1-(S and R)-(hexahydropyrrolo[1,2-a]pyrazin-2(1H)-ylcarbonyl)propyl]-8-(2-methylpyrimidin-5-yl)-9H-purin-6-amine] yielded an IC50 of 10 nM.

For `CCC(Nc1ncnc2c1nc(-c1cnn(CC)c1C)n2C)C(=O)N1CCOCC1` (single isomer, unassigned) [Compound 1-6, (R or S)-8-(1-ethyl-5-methyl-1H-pyrazol-4-yl)-9-methyl-N-[1-(morpholin-4-ylcarbonyl)propyl]-9H-purin-6-amine], 5.2 nM corresponded to half-maximal inhibition (IC50).
